Measurements reported in article PMC7051184, “C9orf72 arginine-rich dipeptide repeat proteins disrupt karyopherin-mediated nuclear import” (eLife, 2020).

Test system: importin β
Assay: Bead halo assay, biotinylated importin β on neutravidin beads
Assay type: binding, human
Conditions: AF488-labeled; 1 mg/ml neuronal lysate added
Description: To prepare biotinylated WT importin β-Avitag (pKW1982, pK1099), BL21DE3 cells (New England Biolabs, Ipswich, MA) were co-transfected with the respective plasmids together with pAC-biotin ligase (Avidity), followed by plating and growth in LB media containing ampicillin and chloramphenicol. After the 37°C cultures reached OD600nm + 0.4–0.6, the cultures were cooled to room temperature, supplemented with 100 µM D-biotin, and the expression was induced with 0.3 mM IPTG at room temperature for 8–11 hr (pKW762). Proteins were purified on Ni-NTA resin as described for the non-biotinylated importin β fragments.
The bead halo assay was carried out as described with minor modifications ([Patel and Rexach, 2008]), using […] polystyrene beads coated with neutravidin (for biotinylated proteins) or glutathione (for GST-fusion proteins) (Spherotech, Lake Forest, IL). Beads were coated overnight at 4°C at saturating concentrations per manufacturers’ instructions and rinsed 2x in binding buffer (20 mM HEPES [pH 7.4], 150 mM KOAc, 2 mM Mg(OAc)2, 1 mM DTT, 0.1% Tween-20). Immediately prior to the assay, fluorescent bait proteins and beads were combined with 4x assay buffer (40 mM EDTA, 40 mg/ml BSA, 500 mM NaCl, and 0.2% Tween) to a total of 40 µL per well, in optical glass-bottom 96-well plates (Cellvis, Mountain View, CA). […]

For `N=C(N)NCCC[C@H](NC(=O)CNC(=O)[C@H](CCCNC(=N)N)NC(=O)CNC(=O)[C@H](CCCNC(=N)N)NC(=O)CNC(=O)[C@H](CCCNC(=N)N)NC(=O)CNC(=O)[C@H](CCCNC(=N)N)NC(=O)CNC(=O)[C@H](CCCNC(=N)N)NC(=O)CNC(=O)[C@H](CCCNC(=N)N)NC(=O)CNC(=O)[C@H](CCCNC(=N)N)NC(=O)CNC(=O)[C@H](CCCNC(=N)N)NC(=O)CNC(=O)[C@H](CCCNC(=N)N)NC(=O)CN)C(=O)O` [GR10], the “Binding to importin β-coated beads” value was “all binding between GR10 and the beads, including importin β, was lost”.
